This experiment deals with Influenza A virus. Put plainly: Antiviral activity against Influenza A virus (A/Puerto Rico/8/34(H1N1)) in MDCK cells assessed as reduction in plaque number by plaque reduction assay. On the technique in general: Plaques are areas of infected cells; plaque reduction assays count them against a control.

pIC50: −log10 of the molar value.

Among the data in ChEMBL document CHEMBL1154750 (J Med Chem, 2010) are IC50 values, retold here.

Regarding `CCOC(=O)C1=C[C@@H](OC(CC)CC)[C@H](NC(C)=O)[C@@H](N)C1` [OSELTAMIVIR], the pIC50 is 6.71.

As usually defined, the pIC50 is the negative decadic logarithm of the IC50, by convention in mol/L.
